System: C57BL/6 mice of hydroquinone model
Experiment: melanogenesis in C57BL/6 mice of hydroquinone model (back skin color, HE staining of hair follicles)
Settings: hydroquinone model group compared with normal control group

## Oc1ccc(O)cc1
  melanin in hair follicle: decreased
  skin color on the back: decreased significantly

From patent publication US20220249404A1 (Nanjing Ruiying Runze Biopharmaceutical Technology Co., Inc., priority 2019, published 2022)
